Source: patent publication EP0998480B1, “NUCLEOTIDE ANALOG COMPOSITION AND SYNTHESIS METHOD” (GILEAD SCIENCES, INC., priority 1997, dated 1999)
Read-outs that look alike come from different tables or passages of the source.

9-[2-(R)-[[Bis[[(isopropoxycarbonyl)oxy]methoxy]phosphinoyl]methoxy]propyl]adenine• fumaric acid [BPPF]
solubility (0.1 n hcl): 15 to 100 mg/mL
solubility (acetone): 15 to 100 mg/mL
solubility (acetonitrile): 3 to 15 mg/mL
solubility (deionized water, pH 3.3): 3 to 15 mg/mL
solubility (dimethylformamide): 428 mg/mL
solubility (ethanol): 15 to 100 mg/mL
solubility (isopropanol): 15 to 100 mg/mL
solubility (isopropyl acetate): 3 to 15 mg/mL
solubility (isopropyl acetate:water (1:1 v/v)): 15 to 100 mg/mL
solubility (methanol): 15 to 100 mg/mL
